Laboratory results reported in patent publication US20080318845A1, “Selective Vpac2 Receptor Peptide Agonists” (priority 2004, published 2008).
pEC50, pIC50: −log10 of the molar value.

Experiments:
[1] = molecular target: T1, human PAC1 (Homo sapiens, UniProt P41586); test: Filter binding assay, membranes of cells transiently transfected with human PAC1, 125I-labeled PACAP-27 tracer; parameters: expressed in transfected cells; host or cells: membranes of transiently transfected cells; settings: 125I-PACAP-27 tracer; read-out: Human receptor binding IC50 PAC1
T1 sequence (P41586 21-468): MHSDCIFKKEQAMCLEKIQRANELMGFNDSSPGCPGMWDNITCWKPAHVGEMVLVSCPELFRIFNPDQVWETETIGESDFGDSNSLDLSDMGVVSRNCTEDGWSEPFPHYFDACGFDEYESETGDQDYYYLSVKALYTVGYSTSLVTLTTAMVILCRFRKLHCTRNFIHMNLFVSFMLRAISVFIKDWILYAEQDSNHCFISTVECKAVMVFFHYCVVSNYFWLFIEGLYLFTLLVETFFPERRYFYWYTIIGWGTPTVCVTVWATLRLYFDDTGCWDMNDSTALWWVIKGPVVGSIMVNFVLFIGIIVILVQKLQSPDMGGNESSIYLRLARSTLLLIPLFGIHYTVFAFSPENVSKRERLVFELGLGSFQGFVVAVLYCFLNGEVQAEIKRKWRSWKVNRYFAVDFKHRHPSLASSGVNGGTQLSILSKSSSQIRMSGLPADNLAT
Description: In order to prepare the filter plates, the presoak solution is aspirated by vacuum filtration. The plates are flushed twice with 200 μL flush buffer. 200 μL blocking buffer is added to the filter plate. The filter plate is then incubated with 200 μL presoak solution for 1 hour at room temperature.
The assay plate is filled with 25 μL assay buffer, 25 μL membranes (2.5 μg) suspended in assay buffer, 25 μL compound (agonist) in assay buffer, and 25 μL tracer (about 40000 cpm) in assay buffer. The filled plate is incubated for 1 hour with shaking.
(§1) The transfer from assay plate to filter plate is conducted. The blocking buffer is aspirated by vacuum filtration and washed two times with flush buffer. 90 μL is transferred from the assay plate to the filter plate. The 90 μL transferred from assay plate is aspirated and washed three times with 200 μL flush buffer. The plastic support is removed. It is dried for 1 hour at 60° C. 30 μL Microscint is added. The count is performed.
(§2) Values reported are single results or the mean of two or more independent runs.

[2] = molecular target: T1, human PAC1; test: DiscoveRx cAMP in vitro potency, CHO-PO cells transiently transfected with human PAC1; type: cell-based; parameters: expressed in transfected cells; host or cells: CHO-PO (transient, Lipofectamine); settings: cAMP generation, read-out: Human PAC1R: DiscoveRx EC50
[3] = molecular target: T2, rat VPAC2 receptor (Rattus norvegicus, UniProt P35000); test: DiscoveRx cAMP potency, CHO-PO cells transiently transfected with rat VPAC2; type: cell-based; settings: read-out: rVPAC2 EC50 (DiscoveRx)
T2 construct: expressed in transfected cells; host or cells: CHO-PO (transient)
T2 sequence (P35000 23-437): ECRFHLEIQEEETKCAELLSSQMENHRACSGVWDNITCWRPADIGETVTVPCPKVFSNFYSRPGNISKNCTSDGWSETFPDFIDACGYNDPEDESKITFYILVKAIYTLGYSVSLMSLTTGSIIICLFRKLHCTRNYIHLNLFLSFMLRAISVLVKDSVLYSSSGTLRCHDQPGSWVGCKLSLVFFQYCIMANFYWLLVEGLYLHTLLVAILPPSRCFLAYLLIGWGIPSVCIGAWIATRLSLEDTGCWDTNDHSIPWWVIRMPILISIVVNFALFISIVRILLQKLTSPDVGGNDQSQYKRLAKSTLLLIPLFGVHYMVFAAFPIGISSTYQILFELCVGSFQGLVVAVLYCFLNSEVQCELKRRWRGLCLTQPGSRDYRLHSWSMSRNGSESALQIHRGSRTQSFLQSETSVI
Description: Rat receptor selectivity was estimated by comparing functional potency (cAMP generation) in CHO-PO cells transiently expressing rat VPAC1 or rat VPAC2 receptors.

[4] = molecular target: T3, human VPAC2 (Homo sapiens, UniProt P41587); test: Filter binding assay, membranes of stable VPAC2 cell line, 125I-labeled VIP tracer; settings: read-out: Human receptor binding IC50 VPAC2; 125I-VIP tracer
T3 construct: expressed in transfected cells
T3 sequence (P41587 24-438): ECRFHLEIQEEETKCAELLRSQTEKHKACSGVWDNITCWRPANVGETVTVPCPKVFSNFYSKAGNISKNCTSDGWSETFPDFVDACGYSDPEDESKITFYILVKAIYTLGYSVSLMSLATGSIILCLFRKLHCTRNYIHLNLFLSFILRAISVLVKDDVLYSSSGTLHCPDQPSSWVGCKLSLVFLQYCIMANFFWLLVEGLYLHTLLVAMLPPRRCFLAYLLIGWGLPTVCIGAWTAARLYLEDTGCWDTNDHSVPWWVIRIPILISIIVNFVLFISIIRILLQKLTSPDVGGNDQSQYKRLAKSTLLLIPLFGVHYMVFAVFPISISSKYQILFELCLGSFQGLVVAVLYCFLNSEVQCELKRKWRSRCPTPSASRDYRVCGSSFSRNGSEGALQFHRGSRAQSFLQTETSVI
Description: In order to prepare the filter plates, the presoak solution is aspirated by vacuum filtration. The plates are flushed twice with 200 μL flush buffer. 200 μL blocking buffer is added to the filter plate.
The filled plate is incubated for 1 hour with shaking.
as §1, §2

Substance | pIC50 [1] | pEC50 [2] | pEC50 [3] | pIC50 [4]
vasoactive intestinal peptide [VIP] | < 6.00 | < 8.00 | 9.10 | 
pituitary adenylate cyclase-activating polypeptide [PACAP-27] |  |  |  | 8.60
